One may read the pIC50 as the IC50 on a negative log10 scale, so that one unit is a factor of ten. What is called pKi is −log10 of the Ki, conventionally taken in molar units.

Protein sequences, listed by entry. Tags and fused reporters are not part of them.
UniProt P10415, whole entry: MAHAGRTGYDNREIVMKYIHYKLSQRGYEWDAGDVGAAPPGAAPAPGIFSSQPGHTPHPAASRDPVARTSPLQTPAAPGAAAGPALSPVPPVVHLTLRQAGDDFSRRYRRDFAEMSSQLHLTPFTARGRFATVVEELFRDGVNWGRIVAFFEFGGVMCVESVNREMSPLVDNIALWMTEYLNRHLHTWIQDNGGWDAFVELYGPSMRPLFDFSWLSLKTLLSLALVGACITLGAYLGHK

pIC50, pKi: −log10 of the molar value.

These results are taken from patent publication US12583853B2, “1H-pyrrolo[2,3-b]pyridine derivatives and related compounds as BCL-2 inhibitors for the treatment of neoplastic and autoimmune diseases” (Newave Pharmaceutical Inc., priority 2018, dated 2026).

Test [1] concerns the target T1, Bcl-2 (Homo sapiens, UniProt P10415).
T1 construct: purchased R&D Systems, Inc
The experiment in a line: Bcl-2 competition binding (fluorescence polarization) assay. The following applies: 3 hours incubation at room temperature, read-out: BCL2 IC50. On the procedure:
Biological Example 1: Bcl-2 Competition Binding (Fluorescence Polarization) Assay
This binding assay was performed in 96-well plate and with each assay contained 15 and 30 nM of labeled peptide and purified Bcl-2 protein (purchased from R&D Systems, Inc). The assay buffer contained 20 mM Hepes (pH 7.0), 50 mM KCl, 5 mM MgCl2, 20 mM Na2MoO4, 0.1 mg/ml Bovine Gamma Globulin and 0.01% NP40. Compounds were diluted in DMSO and added to the final assay with concentration range from 20 μM to 2 nM. The polarization degree (mP) value was determined by BioTek Synergy II with background subtraction after 3 hours of incubation at room temperature. IC50 was calculated using Prism software with sigmoidal dose-response curve fitting. ABT-737 was used as reference compound. Such assays, carried out with a range of doses of test compounds, allowed the determination of an approximate IC50 value.

Test [2] has as its target T1, Bcl-2. The following applies: cited from earlier work.

`CC1(C)CCC(c2ccc(Cl)cc2)=C(CN2CCN(c3ccc(C(=O)NS(=O)(=O)c4ccc(N[C@H](CCN5CCOCC5)CSc5ccccc5)c(S(=O)(=O)C(F)(F)F)c4)cc3)CC2)C1` [ABT-263]: the pIC50 on Bcl-2 [1] was 9.35. Besides, the pKi on Bcl-2 [2] is not below 9.00.
